## scFv variants of Ab-14 (light chain) against a SARS-CoV-2 spike peptide

The target is the same throughout: PDVDLGDISGINAS, from the HR2 region of SARS-CoV-2 spike.

Ab-14 is the parent antibody, in scFv form: VH, then three GGGGS repeats, then VL. The heavy chain is unchanged in all variants.
VH: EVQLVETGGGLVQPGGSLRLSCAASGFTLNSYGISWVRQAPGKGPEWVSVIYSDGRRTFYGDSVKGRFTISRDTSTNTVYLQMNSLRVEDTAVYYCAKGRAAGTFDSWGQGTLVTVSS
VL: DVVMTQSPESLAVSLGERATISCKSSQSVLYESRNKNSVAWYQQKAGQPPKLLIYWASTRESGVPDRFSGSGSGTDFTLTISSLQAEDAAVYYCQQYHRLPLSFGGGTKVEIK

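The starting antibody came from a phage panning campaign against this peptide. This is the validation round: designs drawn from the data on random variants, tested in the same kind of assay. Their group label is 14L_GP_Gen (GP: Gaussian process model; Gen: genetic algorithm; a sequence that several methods proposed may carry one label only). In AlphaSeq, yeast of one mating type display the scFv and yeast of the other type display the target. Pairs that bind mate more often; barcode pairs of the diploids are counted by sequencing. A regression on co-assayed BCL2-family reference pairs converts the normalised counts of each replicate to an apparent Kd. The assay was run in six technical replicates.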

The whole VL of each variant is written out. Values are log10 of the apparent Kd in nM; lower means stronger binding.

With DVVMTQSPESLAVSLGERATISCKLQQSMLYESRNKNSVAWYQQKAGQPPKLLIYHASTRLSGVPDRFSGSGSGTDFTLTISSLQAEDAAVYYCQQYHRLPLSFGGGTKVEIK the result was 0.42, 0.57, 0.46, 0.15, 0.29, 0.40 (controls 4 of 18).
With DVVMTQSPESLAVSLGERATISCKVQQSELYESRNKNSVAWYQQKAGQPPKLLIYEASQRESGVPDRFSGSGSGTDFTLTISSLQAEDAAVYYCQQYHRLPLSFGGGTKVEIK the result was 0.59, 0.80, 0.46, 0.27, 0.21, 0.55 (controls 1 of 18).
With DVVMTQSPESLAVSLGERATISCKLSQSDLYESRNKNSVAWYQQKAGQPPKLLIYNASTREEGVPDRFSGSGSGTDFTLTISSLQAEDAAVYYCQQYHRLPLSFGGGTKVEIK the result was 0.20, -0.23, 0.01, -0.16, 0.06, 0.17 (controls 1 of 18).
With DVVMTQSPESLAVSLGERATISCKLSQSVLYEQRVKNSVAWYQQKAGQPPKLLIYNASTRESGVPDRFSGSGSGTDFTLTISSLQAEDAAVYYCQQYHRLPLSFGGGTKVEIK the result was 0.44, 0.04, -0.19, 0.29, 0.04, 0.46 (controls 1 of 18).
With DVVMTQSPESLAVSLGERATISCKLPQSELYESRNKNSVAWYQQKAGQPPKLLIYEASQRESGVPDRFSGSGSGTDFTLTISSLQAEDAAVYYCQQYHRLPLSFGGGTKVEIK the result was 0.00, -0.14, -0.24, -0.11, -0.06, -0.12 (controls 1 of 18).
With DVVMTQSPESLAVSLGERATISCKLWQSELYESRNKNSVAWYQQKAGQPPKLLIYNASQRESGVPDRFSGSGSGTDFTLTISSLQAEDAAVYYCQQYHRLPLSFGGGTKVEIK the result was 0.09, 0.52, 0.09, 0.40, 0.24, 0.11 (controls 1 of 18).
With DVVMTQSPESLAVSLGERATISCKFSQSVLYESRNKNNVAWYQQKAGQPPKLLIYEASTRESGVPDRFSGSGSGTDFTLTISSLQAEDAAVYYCQQYHRLPLSFGGGTKVEIK the result was 0.16, 0.02, -0.08, -0.27, 0.03, 0.19 (controls 0 of 18).
With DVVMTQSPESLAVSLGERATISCKLSQSMPYESRNKNSVAWYQQKAGQPPKLLIYNASTRESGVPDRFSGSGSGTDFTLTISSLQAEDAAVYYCQQYHRLPLSFGGGTKVEIK the result was -0.20, -0.42, -0.18, -0.54, -0.44, -0.40 (controls 1 of 18).
With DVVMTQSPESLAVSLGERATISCKFSQSWLYESRNKNSVAWYQQKAGQPPKLLIYNASYRESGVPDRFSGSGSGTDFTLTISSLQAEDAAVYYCQQYHRLPLSFGGGTKVEIK the result was -0.30, -0.17, -0.51, -0.65, -0.52, -0.24 (controls 0 of 18).
With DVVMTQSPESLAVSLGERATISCKLYQSVQYESRNKNSVAWYQQKAGQPPKLLIYNASTRESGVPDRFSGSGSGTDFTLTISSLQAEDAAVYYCQQYHRLPLSFGGGTKVEIK the result was 1.04, 1.22, 0.52, 1.09, 0.72, 1.12 (controls 1 of 18).
With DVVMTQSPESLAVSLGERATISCKCSQSVLYESRNKNSVAWYQQKAGQPPKLLIYNASQRESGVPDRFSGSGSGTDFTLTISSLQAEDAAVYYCQQYHRLPLSFGGGTKVEIK the result was -0.30, -0.66, -0.58, -0.70, -0.58, -0.36 (controls 0 of 18).
With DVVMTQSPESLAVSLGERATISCKLSQSVLYEERNKNSVAWYQQKAGQPPKLLIYGASTRESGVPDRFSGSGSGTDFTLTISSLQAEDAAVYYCQQYHRLPLSFGGGTKVEIK the result was 0.00, -0.18, -0.22, -0.34, -0.06, -0.14 (controls 0 of 18).
With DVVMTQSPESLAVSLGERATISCKVSQSDLYESRNKNSVAWYQQKAGQPPKLLIYEASQRESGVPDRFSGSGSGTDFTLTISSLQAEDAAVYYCQQYHRLPLSFGGGTKVEIK the result was -0.16, -0.10, -0.44, -0.60, -0.35, -0.36 (controls 1 of 18).
With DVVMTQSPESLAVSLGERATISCKLSQSELYESRNWNSVAWYQQKAGQPPKLLIYNASTRESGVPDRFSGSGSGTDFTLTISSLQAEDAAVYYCQQYHRLPLSFGGGTKVEIK the result was 0.28, 0.10, -0.02, 0.04, 0.09, 0.41 (controls 4 of 18).
With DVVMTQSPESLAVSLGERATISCKLSQSVLYESRMKNNVAWYQQKAGQPPKLLIYAASTRESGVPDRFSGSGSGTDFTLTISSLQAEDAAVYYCQQYHRLPLSFGGGTKVEIK the result was 0.49, 0.51, 0.56, 0.30, 0.44, 0.50 (controls 2 of 18).
With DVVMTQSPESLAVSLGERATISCKLQQSHLYESRNKNSVAWYQQKAGQPPKLLIYNASYRESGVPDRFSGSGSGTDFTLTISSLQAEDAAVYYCQQYHRLPLSFGGGTKVEIK the result was 0.00, -0.36, -0.51, -0.09, -0.03, 0.03 (controls 1 of 18).
With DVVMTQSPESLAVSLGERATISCKLSQSVLYESRNCNSVAWYQQKAGQPPKLLIYNASQRESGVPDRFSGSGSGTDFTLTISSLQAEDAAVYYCQQYHRLPLSFGGGTKVEIK the result was 0.21, 0.18, 0.01, -0.11, -0.04, 0.29 (controls 4 of 18).
With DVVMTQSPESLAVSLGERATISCKLQQSHLYESRNKNSVAWYQQKAGQPPKLLIYDASTRCSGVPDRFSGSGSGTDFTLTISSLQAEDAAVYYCQQYHRLPLSFGGGTKVEIK the result was 0.38, 0.30, 0.27, -0.06, -0.08, 0.16 (controls 1 of 18).
With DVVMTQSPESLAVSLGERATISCKLSQSQLYESRNKNSVAWYQQKAGQPPKLLIYNASTRLSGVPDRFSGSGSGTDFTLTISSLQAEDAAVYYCQQYHRLPLSFGGGTKVEIK the result was 0.22, 0.10, 0.20, 0.07, -0.05, 0.08 (controls 0 of 18).
With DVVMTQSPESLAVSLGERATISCKLSQSKLYESRNKNNVAWYQQKAGQPPKLLIYNASTRESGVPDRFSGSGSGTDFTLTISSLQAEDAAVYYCQQYHRLPLSFGGGTKVEIK the result was -0.61, -0.56, -0.83, -0.89, -0.89, -0.61 (controls 0 of 18).
With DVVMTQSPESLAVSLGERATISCKLSQSYLYESRNPNSVAWYQQKAGQPPKLLIYNASTRESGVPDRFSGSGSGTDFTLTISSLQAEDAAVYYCQQYHRLPLSFGGGTKVEIK the result was -0.28, -0.28, -0.31, -0.51, -0.36, -0.25 (controls 0 of 18).
With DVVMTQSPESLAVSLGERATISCKVSQSQLYESRNKNSVAWYQQKAGQPPKLLIYQASQRESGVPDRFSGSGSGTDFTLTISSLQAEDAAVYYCQQYHRLPLSFGGGTKVEIK the result was 0.36, 0.07, 0.03, 0.33, 0.21, 0.22 (controls 0 of 18).
With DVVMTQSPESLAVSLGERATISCKLQQSTLYESRNKNSVAWYQQKAGQPPKLLIYNASTRESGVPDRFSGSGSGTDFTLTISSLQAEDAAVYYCQQYHRLPLSFGGGTKVEIK the result was 0.16, 0.34, 0.36, -0.03, 0.09, 0.21 (controls 0 of 18).
With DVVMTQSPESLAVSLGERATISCKLSQQELYESRNKNSVAWYQQKAGQPPKLLIYNASTRESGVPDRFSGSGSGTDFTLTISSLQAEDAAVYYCQQYHRLPLSFGGGTKVEIK the result was 0.18, 0.00, -0.05, 0.18, 0.06, 0.16 (controls 0 of 18).
With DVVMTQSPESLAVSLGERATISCKVSQSNLYESRNKNSVAWYQQKAGQPPKLLIYDASTRESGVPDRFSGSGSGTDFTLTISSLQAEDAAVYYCQQYHRLPLSFGGGTKVEIK the result was 0.11, -0.39, -0.16, -0.49, -0.04, 0.00 (controls 0 of 18).

The 3 strongest on average among those seen in every replicate, once more:

VL	replicates, log10 nM	empty controls
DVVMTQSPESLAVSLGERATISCKLSQSKLYESRNKNNVAWYQQKAGQPPKLLIYNASTRESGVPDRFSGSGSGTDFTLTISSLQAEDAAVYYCQQYHRLPLSFGGGTKVEIK	-0.61, -0.56, -0.83, -0.89, -0.89, -0.61	0 of 18
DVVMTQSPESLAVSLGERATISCKCSQSVLYESRNKNSVAWYQQKAGQPPKLLIYNASQRESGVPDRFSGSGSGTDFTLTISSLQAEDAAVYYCQQYHRLPLSFGGGTKVEIK	-0.30, -0.66, -0.58, -0.70, -0.58, -0.36	0 of 18
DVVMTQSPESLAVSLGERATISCKFSQSWLYESRNKNSVAWYQQKAGQPPKLLIYNASYRESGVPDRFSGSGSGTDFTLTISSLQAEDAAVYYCQQYHRLPLSFGGGTKVEIK	-0.30, -0.17, -0.51, -0.65, -0.52, -0.24	0 of 18

The range of this assay differs from that of the first round, and the authors advise against merging the two. Empty control strains, which show no peptide, gave a signal in 4% of pairings with all light chain designs; the median was 2.64 and 95% of these signals were weaker than 1.59. No background was subtracted. The control count says in how many pairings with the empty strains this scFv gave a signal. Of ten entries with the parent sequence, four were seen in most replicates (averages 0.34 to 2.37), three in one and three in none, so single entries are noisy. The authors averaged sequences with at least three values out of six and counted those with two or fewer as poor binders.

Source: Li et al. 2023 (doi:10.1038/s41467-023-39022-2), MIT Lincoln Laboratory and A-Alpha Bio; data file from the FLAb repository.